Laboratory results published in BindingDB's records for doi:10.1124/jpet.105.087965 (Vrije Universiteit Amsterdam, 2005).

Sequences of proteins named here, by UniProt entry; tags and fusion partners are left off. A change or cut given only in a name is not applied to a line headed by its entry.
UniProt Q9Y5N1: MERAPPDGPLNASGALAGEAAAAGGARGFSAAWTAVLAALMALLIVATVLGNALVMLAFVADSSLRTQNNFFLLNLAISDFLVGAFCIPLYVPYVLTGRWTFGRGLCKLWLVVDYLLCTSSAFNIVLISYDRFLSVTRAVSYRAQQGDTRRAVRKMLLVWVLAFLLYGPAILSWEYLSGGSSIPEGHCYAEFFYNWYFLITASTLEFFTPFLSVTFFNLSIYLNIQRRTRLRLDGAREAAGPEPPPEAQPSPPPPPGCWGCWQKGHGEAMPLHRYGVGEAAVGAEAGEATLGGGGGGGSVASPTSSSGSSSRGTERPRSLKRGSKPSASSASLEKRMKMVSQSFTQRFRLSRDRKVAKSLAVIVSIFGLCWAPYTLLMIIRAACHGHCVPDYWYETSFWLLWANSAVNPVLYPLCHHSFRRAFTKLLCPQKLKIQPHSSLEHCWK

Target: Histamine H3 receptor (Homo sapiens, UniProt Q9Y5N1)
Assay: Ligand displacement assays were performed on The SK-N-MC/hH3R cell homogenates. Retained radioactivity was determined by liquid scintillation counting. The Ki values were calculated based on an experimentally determined appropriate Kd value according to Cheng and Prusoff.

Row | SMILES | Ki [nM]
1 | NC(=NCc1ccc(Cl)cc1)SCCCc1cnc[nH]1 [VUF 9153] | 3
2 | NCCCCCc1c[nH]cn1 [5-(1H-imidazol-5-yl)pentan-1-amine] | 5
